Data reported in US10189836B2, “Therapeutic compounds, compositions and methods of use thereof” (Genentech, Inc., priority 2015, dated 2019).

Test system: JAK1-dependent STAT6 phosphorylation downstream of IL-13 stimulation in BEAS-2B cells

| SMILES | IC50 [nM] |
| --- | --- |
| N#CC1(CNC2CCN(C(=O)Cn3cc(Nc4nc5c(N6CC7CCC(C6)N7C(=O)C6CC(C(F)(F)F)C6)cccn5n4)cn3)CC2)CC1 (stereo not shown) [Example 191, 1-[[[1-[2-[4-[[8-[8-[3-(trifluoromethyl)cyclo-butanecarbonyl]-3,8-diazabicyclo[3.2.1]octan-3-yl]-[1,2,4]triazolo[1,5-a]pyridin-2-yl]amino]pyrazol-1-yl]acetyl]-4-piperidyl]amino]methyl]-cyclopropanecarbonitrile] | 236 |
| CN1CCN(C(=O)Cn2cc(Nc3nc4c(N5CC6CCC(C5)N6C(=O)N5CCC(C#N)CC5)cccn4n3)cn2)CC1 [Example 182, 1-[3-[2-[[1-[2-(4-methylpiperazin-1-yl)-2-oxo-ethyl]pyrazol-4-yl]amino]-[1,2,4]triazolo[1,5-a]pyridin-8-yl]-3,8-diazabicyclo[3.2.1]octane-8-carbonyl]piperidine-4-carbonitrile] | 17 |
| CN1CCN(C(=O)Cn2cc(Nc3nc4c(N5CC6CCC(C5)N6Cc5cnc(CC(F)(F)F)s5)cccn4n3)cn2)CC1 [Example 101, 1-(4-methylpiperazin-1-yl)-2-[4-[[8-[8-[[2-(2,2,2-trifluoroethyl)thiazol-5-yl]methyl]-3,8-diazabicyclo[3.2.1]octan-3-yl]-[1,2,4]triazolo[1,5-a]pyridin-2-yl]amino]pyrazol-1-yl]ethanone] | 414 |
| CN1CCN(C(=O)Cn2cc(Nc3nc4c(N5CC6CCC(C5)N6C(=O)c5ccc(Cl)cc5)cccn4n3)cn2)CC1 [Example 89] | 138 |
| CN1CCN(C(=O)Cn2cc(Nc3nc4c(N5CC6CCC(C5)N6S(=O)(=O)c5ccccc5Cl)cccn4n3)cn2)CC1 [Example 111, 2-[4-[[8-[8-(2-chlorophenyl)sulfonyl-3,8-diazabicyclo[3.2.1]octan-3-yl]-[1,2,4]triazolo[1,5-a]pyridin-2-yl]amino]pyrazol-1-yl]-1-(4-methylpiperazin-1-yl)ethanone] | 21.4 |
| Cc1ccc(CO[C@H]2[C@@H]3CC[C@H]2CN(c2cccn4nc(Nc5cnn(CC(=O)N6CCN(C)CC6)c5)nc24)C3)cn1 [Example 151, 1-(4-methylpiperazin-1-yl)-2-[4-[[8-[rac-(1S,5R)-8-[(6-methyl-3-pyridyl)methoxy]-3-azabicyclo[3.2.1]octan-3-yl]-[1,2,4]triazolo[1,5-a]pyridin-2-yl]amino]pyrazol-1-yl]ethanone] | 23.9 |
| CN1CCN(C(=O)Cn2cc(Nc3nc4c(N5C[C@H]6CC[C@@H](C5)[C@H]6OCc5ccc(F)nc5)cccn4n3)cn2)CC1 [Example 162, 1-(4-methylpiperazin-1-yl)-2-[4-[[8-[rac-(1S,5R)-8-[(6-fluoro-3-pyridyl)methoxy]-3-azabicyclo[3.2.1]octan-3-yl]-[1,2,4]triazolo[1,5-a]pyridin-2-yl]amino]pyrazol-1-yl]ethanone] | 85.5 |
| CN1CCN(C(=O)Cn2cc(Nc3nc4c(N5CC6CCC(C5)N6C(=O)CC(N)C(F)(F)F)cccn4n3)cn2)CC1 (stereo not shown) [Example 102, 3-amino-4,4,4-trifluoro-1-[3-[2-[[1-[2-(4-methylpiperazin-1-yl)-2-oxo-ethyl]pyrazol-4-yl]amino]-[1,2,4]triazolo[1,5-a]pyridin-8-yl]-3,8-diazabicyclo[3.2.1]octan-8-yl]butan-1-one] | 420 |
| CN1CCN(C(=O)Cn2cc(Nc3nc4c(N5CC6CCC(C5)N6S(=O)(=O)Cc5ccc(F)cc5)cccn4n3)cn2)CC1 [Example 160, 2-[4-[[8-[8-[(4-fluorophenyl)methylsulfonyl]-3,8-diazabicyclo[3.2.1]octan-3-yl]-[1,2,4]triazolo[1,5-a]pyridin-2-yl]amino]pyrazol-1-yl]-1-(4-methylpiperazin-1-yl)ethanone] | 28.5 |
| CC(C(=O)N1CCN(C)CC1)n1cc(Nc2nc3c(N4CC5CCC(C4)N5C(=O)C4CC(C(F)(F)F)C4)cccn3n2)cn1 (stereo not shown) [Example 125, 1-(4-methylpiperazin-1-yl)-2-[4-[[8-[8-(3-(trifluoromethyl)-cyclobutanecarbonyl]-3,8-diazabicyclo[3.2.1]octan-3-yl]-[1,2,4]triazolo[1,5-a]pyridin-2-yl]amino]pyrazol-1-yl]propan-1-one] | 71.2 |
| CN1CCN(C(=O)Cn2cc(Nc3nc4c(N5CC6CCC(C5)N6S(=O)(=O)c5cccnc5)cccn4n3)cn2)CC1 [Example 175, 1-(4-methylpiperazin-1-yl)-2-[4-[[8-[8-(3-pyridylsulfonyl)-3,8-diazabicyclo[3.2.1]octan-3-yl]-[1,2,4]triazolo[1,5-a]pyridin-2-yl]amino]pyrazol-1-yl]ethanone] | 39.9 |
| CN1CCN(C(=O)Cn2cc(Nc3nc4c(N5CC6CCC(C5)N6CC5(C#N)CC5)cccn4n3)cn2)CC1 [Example 21, 1-[[3-[2-[[1-[2-(4-methylpiperazin-1-yl)-2-oxo-ethyl]pyrazol-4-yl]amino]-[1,2,4]triazolo[1,5-a]pyridin-8-yl]-3,8-diazabicyclo[3.2.1]octan-8-yl]methyl] cyclopropanecarbonitrile] | 52.3 |
| N#CC1(CNC2CCN(C(=O)Cn3cc(Nc4nc5c(N6CC7CCC(C6)N7C(=O)C6CC(C(F)(F)F)C6)cccn5n4)cn3)CC2)CC1 (stereo not shown) [Example 190, 1-[[[1-[2-[4-[[8-[8-[3-(trifluoromethyl)cyclo-butanecarbonyl]-3,8-diazabicyclo[3.2.1]octan-3-yl]-[1,2,4]triazolo[1,5-a]pyridin-2-yl]amino]pyrazol-1-yl]acetyl]-4-piperidyl]amino]methyl]-cyclopropanecarbonitrile] | 120 |
| CN1CCN(C(=O)Cn2cc(Nc3nc4c(N5CC6CCC(C5)N6C(=O)N5CCC(F)(F)CC5)cccn4n3)cn2)CC1 [Example 188, 2-[4-[[8-[8-(4,4-difluoropiperidine-1-carbonyl)-3,8-diazabicyclo[3.2.1]octan-3-yl]-[1,2,4]triazolo[1,5-a]pyridin-2-yl]amino]pyrazol-1-yl]-1-(4-methylpiperazin-1-yl)ethanone] | 16.8 |
| CSCCN1CCN(C(=O)Cn2cc(Nc3nc4c(N5CC6CCC(C5)N6C(=O)N5CC(C(F)(F)F)C5)cccn4n3)cn2)CC1 [Example 186, 1-[4-(2-methylsulfanylethyl)piperazin-1-yl]-2-[4-[[8-[8-(3-(trifluoromethyl)azetidine-1-carbonyl]-3,8-diazabicyclo[3.2.1]octan-3-yl]-[1,2,4]triazolo[1,5-a]pyridin-2-yl]amino]pyrazol-1-yl]ethanone; formic acid] | 13.6 |
| CN1CCN(C(=O)Cn2cc(Nc3nc4c(N5CC6CCC(C5)N6C(=O)N5CCC(C(F)(F)F)C5)cccn4n3)cn2)CC1 (stereo not shown) [Example 181, 1-(4-methylpiperazin-1-yl)-2-[4-[[8-[8-(3-(trifluoromethyl)pyrrolidine-1-carbonyl]-3,8-diazabicyclo[3.2.1]octan-3-yl]-[1,2,4]triazolo[1,5-a]pyridin-2-yl]amino]pyrazol-1-yl]ethanone] | 36.3 |
| COC(=O)C1C2CCC1CN(c1cccn3nc(Nc4cnn(CC(=O)N5CCN(C)CC5)c4)nc13)C2 (stereo not shown) [Example 80, methyl 3-[2-[[1-[2-(4-methylpiperazin-1-yl)-2-oxo-ethyl]pyrazol-4-yl]amino]-[1,2,4]triazolo[1,5-a]pyridin-8-yl]-3-azabicyclo[3.2.1]octane-8-carboxylate] | 83.5 |
| CCN1CCN(C(=O)Cn2cc(Nc3nc4c(N5CC6CCC(C5)N6C(=O)N5CC(C(F)(F)F)C5)cccn4n3)cn2)CC1 [Example 59, 1-(4-ethylpiperazin-1-yl)-2-[4-[[8-[8-[3-(trifluoromethyl)azetidine-1-carbonyl]-3,8-diazabicyclo[3.2.1]octan-3-yl]-[1,2,4]triazolo[1,5-a]pyridin-2-yl]amino]pyrazol-1-yl]ethanone] | 37.9 |
| CN1CCN(C(=O)Cn2cc(Nc3nc4c(N5CC6CCC(C5)N6C(=O)c5ccsc5)cccn4n3)cn2)CC1 [Example 157, 1-(4-methylpiperazin-1-yl)-2-[4-[[8-[8-(thiophene-3-carbonyl)-3,8-diazabicyclo[3.2.1]octan-3-yl]-[1,2,4]triazolo[1,5-a]pyridin-2-yl]amino]pyrazol-1-yl]ethanone] | 26.9 |
| CN1CCN(C(=O)Cn2cc(Nc3nc4c(C5=CC6CCC(C5)N6C(=O)[C@H]5C[C@H](C(F)(F)F)C5)cccn4n3)cn2)CC1 (stereo partly shown) [Example 24, 1-(4-methylpiperazin-1-yl)-2-[4-[[8-[8-[3-(trifluoromethyl)cyclobutanecarbonyl]-8-azabicyclo[3.2.1]oct-3-en-3-yl]-[1,2,4]triazolo[1,5-a]pyridin-2-yl]amino]pyrazol-1-yl]ethanone] | 323 |
| CSc1ccccc1C(=O)N1C2CCC1CN(c1cccn3nc(Nc4cnn(CC(=O)N5CCN(C)CC5)c4)nc13)C2 [Example 115] | 132 |
| CN1CCN(C(=O)Cn2cc(Nc3nc4c(N5CC6CCC(C5)N6C(=O)N5CC(O)(C(F)(F)F)C5)cccn4n3)cn2)CC1 [Example 141, 2-[4-[[8-[8-[3-hydroxy-3-(trifluoromethyl)azetidine-1-carbonyl]-3,8-diazabicyclo[3.2.1]octan-3-yl]-[1,2,4]triazolo[1,5-a]pyridin-2-yl]amino]pyrazol-1-yl]-1-(4-methylpiperazin-1-yl)ethanone] | 11.1 |
| CN1CCN(C(=O)Cn2cc(Nc3nc4c(N5CC6CCC(C5)N6C(=O)COCC(F)(F)F)cccn4n3)cn2)CC1 [Example 45, 1-(4-methylpiperazin-1-yl)-2-[4-[[8-[8-[2-(2,2,2-trifluoroethoxy)acetyl]-3,8-diazabicyclo[3.2.1]octan-3-yl]-[1,2,4]triazolo[1,5-a]pyridin-2-yl]amino]pyrazol-1-yl]ethanone] | 67.1 |
| CN1CCN(C(=O)Cn2cc(Nc3nc4c(N5CC6CCC(C5)N6C(=O)C5CC(C#N)C5)cccn4n3)cn2)CC1 (stereo not shown) [Example 92, 3-[3-[2-[[1-[2-(4-methylpiperazin-1-yl)-2-oxo-ethyl]pyrazol-4-yl]amino]-[1,2,4]triazolo[1,5-a]pyridin-8-yl]-3,8-diazabicyclo[3.2.1]octane-8-carbonyl]cyclo-butanecarbonitrile] | 179 |
| CSCCN1CCN(C(=O)Cn2cc(Nc3nc4c(N5CC6CCC(C5)N6C(=O)C5CC(C(F)(F)F)C5)cccn4n3)cn2)CC1 (stereo not shown) [Example 197, 1-[4-(2-methylsulfanylethyl)-piperazin-1-yl]-2-[4-[[8-[8-[3-(trifluoromethyl)-cyclobutanecarbonyl]-3,8-diazabicyclo[3.2.1]octan-3-yl]-[1,2,4]triazolo[1,5-a]pyridin-2-yl]amino]pyrazol-1-yl]ethanone] | 23.1 |
